Assay results reported in PubChem BioAssay (NCI).
Where “and” joins values, the source holds several entries; their conditions need not be identical. Equal values may be shown once. This is a selection; strong and weak results do not stand in their true shares. Some of these compounds have results that are not shown, active ones among them.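 A percent growth of 40 corresponds to 60% growth inhibition; 0 means no net growth; -100 means all cells died. Active threshold: below 10.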 Calls of active or inactive are those of the source.

system: TK-10 renal; assay: NCI-60 one-dose screen, 48 h (100 = growth as untreated, 0 = no growth, -100 = all killed); conditions: 10 µM

| Compound | growth |
| --- | --- |
| ClCCN(CCCl)Cc1cc(Cl)cc(Cl)c1 | inactive: 105% |
| N#CC(C#N)=Cc1ccccc1Cl | inactive: 92.2% |
| ClCCN(CCCl)Cc1ccsc1Br | inactive: 117% |
| N#CC(C#N)=Cc1cccc(Br)c1 | inactive: 111% |
| Fc1cccc(CN(CCCl)CCCl)c1 | inactive: 99.4% |
| Cc1cc2nc(CN(CCCl)CCCl)[nH]c2cc1C | inactive: 119% |
| ClCCN(CCCl)C1c2ccccc2-c2ccccc21 | inactive: 84.4% |
| CC(C)(C)N(CCCl)CCCl | inactive: 95.8% |
| N#CC(C#N)=Cc1ccc(Br)cc1 | inactive: 115% and inactive: 109% |
| CCOc1ccc([N+](=O)[O-])cc1CN(CCCl)CCCl | inactive: 86% |
| CN(C)CCOC(=O)C(O)(c1ccccc1)c1ccccc1 | inactive: 117% |
| ClCCN(CCCl)Cc1ccc(Cl)c(Cl)c1 | inactive: 98.3% |
| CC(=O)CI | inactive: 109% |
| CCCN(CCCl)CCCl | inactive: 134% |
| BrCCN(CCBr)Cc1ccccc1 | inactive: 117% |
| CCNCCCl | inactive: 99.6% |
| O=C(OCCN1CCCC1)C(O)(c1ccccc1)c1ccccc1 | inactive: 96.7% |
| COc1ccc(N=C=S)cc1CN(CCCl)CCCl | inactive: 78.6% |
| ClCCN(CCCl)C1CCCCC1 | inactive: 100% |
| CC[N+](C)(C)Cc1cccc(Cc2ccccc2)c1OC(=O)N(C)C | inactive: 109% |
| COc1ccc([N+](=O)[O-])cc1CN(CCCl)CCCl | inactive: 104% |
| ClCCCCCC(CCl)NCCCl (centres undefined) | inactive: 102% |
| COCc1c(CN(CCCl)CCCl)cnc(C)c1O | inactive: 105% |
| CN(CCBr)CCBr | inactive: 89.7% |

system: ACHN renal; assay: as above; conditions: 10 µM

| Compound | growth |
| --- | --- |
| ClCCN(CCCl)Cc1cc(Cl)cc(Cl)c1 | inactive: 69.2% |
| N#CC(C#N)=Cc1ccccc1Cl | inactive: 110% |
| ClCCN(CCCl)Cc1ccsc1Br | inactive: 82.8% |
| N#CC(C#N)=Cc1cccc(Br)c1 | inactive: 108% |
| Fc1cccc(CN(CCCl)CCCl)c1 | inactive: 86.4% |
| Cc1cc2nc(CN(CCCl)CCCl)[nH]c2cc1C | inactive: 66.7% |
| CC(C)(C)N(CCCl)CCCl | inactive: 91.4% |
| N#CC(C#N)=Cc1ccc(Br)cc1 | inactive: 115% and inactive: 113% |
| CCOc1ccc([N+](=O)[O-])cc1CN(CCCl)CCCl | inactive: 96.1% |
| CN(C)CCOC(=O)C(O)(c1ccccc1)c1ccccc1 | inactive: 101% |
| ClCCN(CCCl)Cc1ccc(Cl)c(Cl)c1 | inactive: 100% |
| CC(=O)CI | inactive: 107% |
| CCCN(CCCl)CCCl | inactive: 96.6% |
| BrCCN(CCBr)Cc1ccccc1 | inactive: 94.3% |
| CCNCCCl | inactive: 92.3% |
| O=C(OCCN1CCCC1)C(O)(c1ccccc1)c1ccccc1 | inactive: 107% |
| COc1ccc(N=C=S)cc1CN(CCCl)CCCl | inactive: 41.9% |
| ClCCN(CCCl)C1CCCCC1 | inactive: 90.8% |
| CC[N+](C)(C)Cc1cccc(Cc2ccccc2)c1OC(=O)N(C)C | inactive: 102% |
| COc1ccc([N+](=O)[O-])cc1CN(CCCl)CCCl | inactive: 94.8% |
| ClCCCCCC(CCl)NCCCl (centres undefined) | inactive: 28.3% |
| COCc1c(CN(CCCl)CCCl)cnc(C)c1O | inactive: 102% |
| CN(CCBr)CCBr | inactive: 82.3% |

system: CAKI-1 renal; assay: as above; conditions: 10 µM

| Compound | growth |
| --- | --- |
| ClCCN(CCCl)Cc1cc(Cl)cc(Cl)c1 | inactive: 12.3% |
| N#CC(C#N)=Cc1ccccc1Cl | inactive: 106% |
| ClCCN(CCCl)Cc1ccsc1Br | inactive: 61.7% |
| N#CC(C#N)=Cc1cccc(Br)c1 | inactive: 99.1% |
| Fc1cccc(CN(CCCl)CCCl)c1 | inactive: 69.7% |
| Cc1cc2nc(CN(CCCl)CCCl)[nH]c2cc1C | inactive: 29.7% |
| CC(C)(C)N(CCCl)CCCl | inactive: 98.3% |
| N#CC(C#N)=Cc1ccc(Br)cc1 | inactive: 99.7% and inactive: 107% |
| CCOc1ccc([N+](=O)[O-])cc1CN(CCCl)CCCl | inactive: 87.8% |
| CN(C)CCOC(=O)C(O)(c1ccccc1)c1ccccc1 | inactive: 97.9% |
| ClCCN(CCCl)Cc1ccc(Cl)c(Cl)c1 | inactive: 94.9% |
| CC(=O)CI | inactive: 98.9% |
| CCCN(CCCl)CCCl | inactive: 90.4% |
| CCNCCCl | inactive: 107% |
| O=C(OCCN1CCCC1)C(O)(c1ccccc1)c1ccccc1 | inactive: 86% |
| COc1ccc(N=C=S)cc1CN(CCCl)CCCl | inactive: 31.4% |
| ClCCN(CCCl)C1CCCCC1 | inactive: 86.5% |
| CC[N+](C)(C)Cc1cccc(Cc2ccccc2)c1OC(=O)N(C)C | inactive: 100% |
| COc1ccc([N+](=O)[O-])cc1CN(CCCl)CCCl | inactive: 72.5% |
| ClCCCCCC(CCl)NCCCl (centres undefined) | inactive: 51.5% |
| COCc1c(CN(CCCl)CCCl)cnc(C)c1O | inactive: 92.7% |
| CN(CCBr)CCBr | inactive: 70.4% |
